Results as given in patent US9388210B2, “Neuroactive 17(20)-Z-vinylcyano-substituted steroids, prodrugs thereof, and methods of treatment using same” (priority 2011, dated 2016).

Key:
tadpole = experiment: Tadpole loss of righting reflex (LRR) and loss of swimming reflex (LSR); format: in vivo; details: loss of righting reflex; ± SEM
Excerpt: Table 3 discloses the anesthetic effects of the compounds of the present disclosure. In particular, the anesthetic effect of the compounds of the present disclosure on Loss of Righting Reflex (LRR) and Loss of Swimming Reflex (LSR).

[1] = target: picrotoxin binding site on GABAA receptors; details: duplicate experiments in triplicate; ± SEM; read-out: IC50, inhibition of [35S]-TBPS binding
[2] = target: rat α1β2γ2L type GABAA receptors (Rattus norvegicus (Rat), UniProt P62813+P63138, INS375LLRMFSFK); experiment: Oocyte electrophysiology: potentiation of 2 μM GABA chloride currents and direct gating, Xenopus laevis oocytes; format: cell-based; details: ± SEM; for ratio of currents measured in the presence/absence of added compound, 0.1 μM: 0.1 μM compound; for ratio of currents measured in the presence/absence of added compound, 0.1 μM / ratio of currents measured in the presence/absence of added compound, 1 μM / ratio of currents measured in the presence/absence of added compound, 10 μM: 2 μM GABA, N ≥ 4; for ratio of currents measured in the presence/absence of added compound, 1 μM: 1 μM compound; for (gating) 10 μM: ratio of compound only current/2 μM GABA current: 10 μM compound in the absence of GABA; for ratio of currents measured in the presence/absence of added compound, 10 μM: 10 μM compound
Description: The compounds of the present disclosure were evaluated for the ability to potentiate chloride currents mediated by 2 μM GABA at rat α1β2γ2L type GABAA receptors expressed in Xenopus laevis oocytes and the results are shown in Table 2.
The measured concentration of GABA, on average, gates about 4% of the maximum response of a cell. However, the sensitivity to GABA of the receptors, which determines the degree of steroid potentiation that can be measured, varied from one batch of oocytes to another. […] Compounds that are weak potentiators yield flat concentration-response data and frequently only augment GABA-mediated currents at the highest concentration tested (10 μM).

Molecule	EC50 (tadpole)	IC50 [1]	ratio of currents measured in the presence/absence of added compound, 0.1 μM [2]	ratio of currents measured in the presence/absence of added compound, 1 μM [2]	(gating) 10 μM: ratio of compound only current/2 μM GABA current [2]	ratio of currents measured in the presence/absence of added compound, 10 μM [2]
C[C@]12CC[C@@H](O)C[C@@H]1CC[C@@H]1[C@@H]2C(=O)C[C@]2(C)/C(=C\C#N)CC[C@@H]12 [Compound 6a, [3α,5α,17(20)Z]-3-Hydroxy-11-oxopregn-17(20)-ene-2′-nitrile]	1440 ± 200 nM	128 ± 11 nM	–	–	–	–
C[C@]12CC[C@@H](O)C[C@@H]1CC[C@@H]1[C@@H]2C(=O)C[C@]2(C)/C(=C/C#N)CC[C@@H]12 [Compound 6b, [3α,5α,17(20)E]-3-Hydroxy-11-oxopregn-17(20)-ene-2′-nitrile]	–	2030 nM	–	–	–	–
C/C(C#N)=C1\CC[C@H]2[C@@H]3CC[C@H]4C[C@H](O)CC[C@]4(C)[C@H]3C(=O)C[C@]12C [Compound 6c, [3α,5α,17(20)Z]-3-Hydroxy-11-oxopregn-17(20)-ene-20-carbonitrile]	–	629 ± 89 nM	0.90 ± 0.05	1.52 ± 0.24	0.04 ± 0.01	5.02 ± 0.62
C[C@]12CC[C@@H](O)C[C@H]1CC[C@@H]1[C@@H]2C(=O)C[C@]2(C)/C(=C\C#N)CC[C@@H]12 [Compound 13a, [3α,5β,17(20)Z]-3-Hydroxy-11-oxo-pregn-17(20)-ene-21-nitrile]	–	474 ± 35 nM	–	–	–	–
C[C@]12CC[C@@H](O)C[C@H]1CC[C@@H]1[C@@H]2C(=O)C[C@]2(C)/C(=C/C#N)CC[C@@H]12 [Compound 13b, [3α,5β,17(20)E]-3-Hydroxy-11-oxo-pregn-17(20)-ene-21-nitrile]	–	9600 nM	–	–	–	–
[3α,5α,17(20)E]-3-(Acetyloxy)-11-oxopregn-17(20)-ene-20-carbonitrile [Compound 6d]	–	1840 nM	0.90 ± 0.01	0.86 ± 0.04	0.05 ± 0.02	1.53 ± 0.02
